Target: T1, LXRβ (Homo sapiens, UniProt P55055)
T1 construct: expressed in transfected cells; host or cells: HEK293T
Test: Liver X receptor activity test, dual-luciferase reporter gene in HEK293T cells (pSG5/hLXRβ + hRXRα)
Assay type: cell-based
Settings: HEK-293T, 20 h, read-out: LXRβ % Inverse agonist effect
Protocol: (1) Cell culture: human embryonic kidney cells (HEK293T cells) were cultured in DMEM (high glucose) medium containing 10% fetal bovine serum and 1% penicillin-streptomycin under conditions of 37° C. and 5% CO2.
(2) Transfection: HEK293T cells were seeded in a 96-well plate with a cell density of 2×10^4 cells/well. After 24 hours, the cells were transfected according to instructions of Lipofectamine™ 3000 reagent. The specific steps of transfection were as follows: • (1) adding 15 μL of L3000 reagent to 500 μL of DMEM (high sugar) medium, and vortex oscillating for 2 seconds; • (2) mixing 6.5 μg of pGL3/(DR-4)-c-fos-FF-luc plasmid, 0.13 μg of pCMV/Renilla-luc plasmid, 1.3 μg of pSG5/hLXRα (or pSG5/hLXRβ plasmid), 1.3 μg of pSG5/hRXRα plasmid, and 19 μL of P3000 reagent in 500 μL of DMEM (high sugar) medium; • (3) adding the plasmid mixture to a liposome mixture and standing by at room temperature for 20 minutes; and • (4) adding 10 μL of liposome-DNA solution to each well of the 96-well plate, and gently shaking the 96-well plate to mix well.
(3) Drug intervention: after 5 hours of transfection, the compounds to be tested were added, and the plate was placed in an incubator to continue culturing for 20 hours. […]
Result processing: the results were analyzed using Renilla luciferase activity to correct the firefly luciferase activity.

Chains of the proteins cited; added tags and fusions are not shown.
UniProt P55055, whole entry: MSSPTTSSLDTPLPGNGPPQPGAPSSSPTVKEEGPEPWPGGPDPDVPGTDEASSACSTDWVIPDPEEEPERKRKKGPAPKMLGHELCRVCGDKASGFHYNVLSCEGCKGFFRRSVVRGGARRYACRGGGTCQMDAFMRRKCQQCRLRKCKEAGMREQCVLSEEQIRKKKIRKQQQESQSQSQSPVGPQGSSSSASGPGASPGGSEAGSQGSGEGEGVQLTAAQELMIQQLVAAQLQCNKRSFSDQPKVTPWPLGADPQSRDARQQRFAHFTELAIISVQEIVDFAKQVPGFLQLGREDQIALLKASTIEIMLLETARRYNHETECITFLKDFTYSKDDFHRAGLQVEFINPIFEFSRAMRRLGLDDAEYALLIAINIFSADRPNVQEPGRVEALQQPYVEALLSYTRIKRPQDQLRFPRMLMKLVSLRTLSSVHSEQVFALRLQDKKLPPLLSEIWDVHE

SMILES: CCOC(=O)c1ccc(CN(Cc2ccc(-c3cccc(S(C)(=O)=O)c3)cc2)S(=O)(=O)c2c(C)cc(C)cc2C)o1 [SR9238, reference compound]
- Emax: 78%
